Experimental data from ChEMBL document CHEMBL1135171, “Discovery of potent and selective small molecule NPY Y5 receptor antagonists” (Bioorg Med Chem Lett, 2002).

Protein sequences, listed by entry. Tags and fused reporters are not part of them.
UniProt P25929, whole entry: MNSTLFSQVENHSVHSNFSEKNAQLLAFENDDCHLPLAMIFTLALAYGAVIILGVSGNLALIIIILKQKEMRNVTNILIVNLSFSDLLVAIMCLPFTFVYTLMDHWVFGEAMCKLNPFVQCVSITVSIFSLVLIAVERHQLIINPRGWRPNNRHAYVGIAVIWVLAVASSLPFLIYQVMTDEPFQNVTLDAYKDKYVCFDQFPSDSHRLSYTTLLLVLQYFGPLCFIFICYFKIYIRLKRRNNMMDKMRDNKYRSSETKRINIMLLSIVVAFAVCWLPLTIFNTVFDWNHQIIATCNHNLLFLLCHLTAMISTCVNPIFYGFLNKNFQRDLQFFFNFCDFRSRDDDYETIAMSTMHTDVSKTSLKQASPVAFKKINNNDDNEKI

Legend:
[1] = molecular target: Neuropeptide Y receptor type 1 (Homo sapiens, UniProt P25929); assay: Tested for radioligand binding affinity against membranes from COS-7 cells transiently transfected with Neuropeptide Y receptor type 1; format: cell membranes
[2] = molecular target: T1, Neuropeptide Y receptor type 5 (Homo sapiens, UniProt Q15761); assay: Tested for radioligand binding affinity against membranes from COS-7 cells transiently transfected with Neuropeptide Y receptor type 5; format: cell membranes
T1 sequence (Q15761 whole entry): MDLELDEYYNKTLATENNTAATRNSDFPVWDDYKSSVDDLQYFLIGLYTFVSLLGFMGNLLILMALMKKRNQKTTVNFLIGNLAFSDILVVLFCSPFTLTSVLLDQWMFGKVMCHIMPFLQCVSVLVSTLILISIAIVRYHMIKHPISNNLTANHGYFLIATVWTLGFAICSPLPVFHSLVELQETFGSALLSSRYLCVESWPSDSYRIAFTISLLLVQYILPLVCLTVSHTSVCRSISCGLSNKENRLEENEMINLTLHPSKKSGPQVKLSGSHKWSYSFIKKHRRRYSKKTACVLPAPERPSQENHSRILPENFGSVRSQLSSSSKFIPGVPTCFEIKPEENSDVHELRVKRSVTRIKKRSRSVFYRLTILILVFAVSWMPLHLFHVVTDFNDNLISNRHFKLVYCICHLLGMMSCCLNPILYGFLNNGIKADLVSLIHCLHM

For `O=S(=O)(NC[C@H]1CC[C@H](CNC(CO)Cc2ccc(Cl)cc2)CC1)c1cccc2ccccc12` (some centres not stated), the Ki [1] was 3240 nM and the Ki [2] was 17 nM.
